Assay results as given in publication PMC10793458 (bioRxiv, 2023).

Sequences of proteins named here, by UniProt entry; tags and fusion partners are left off.
UniProt Q86UE8, whole entry: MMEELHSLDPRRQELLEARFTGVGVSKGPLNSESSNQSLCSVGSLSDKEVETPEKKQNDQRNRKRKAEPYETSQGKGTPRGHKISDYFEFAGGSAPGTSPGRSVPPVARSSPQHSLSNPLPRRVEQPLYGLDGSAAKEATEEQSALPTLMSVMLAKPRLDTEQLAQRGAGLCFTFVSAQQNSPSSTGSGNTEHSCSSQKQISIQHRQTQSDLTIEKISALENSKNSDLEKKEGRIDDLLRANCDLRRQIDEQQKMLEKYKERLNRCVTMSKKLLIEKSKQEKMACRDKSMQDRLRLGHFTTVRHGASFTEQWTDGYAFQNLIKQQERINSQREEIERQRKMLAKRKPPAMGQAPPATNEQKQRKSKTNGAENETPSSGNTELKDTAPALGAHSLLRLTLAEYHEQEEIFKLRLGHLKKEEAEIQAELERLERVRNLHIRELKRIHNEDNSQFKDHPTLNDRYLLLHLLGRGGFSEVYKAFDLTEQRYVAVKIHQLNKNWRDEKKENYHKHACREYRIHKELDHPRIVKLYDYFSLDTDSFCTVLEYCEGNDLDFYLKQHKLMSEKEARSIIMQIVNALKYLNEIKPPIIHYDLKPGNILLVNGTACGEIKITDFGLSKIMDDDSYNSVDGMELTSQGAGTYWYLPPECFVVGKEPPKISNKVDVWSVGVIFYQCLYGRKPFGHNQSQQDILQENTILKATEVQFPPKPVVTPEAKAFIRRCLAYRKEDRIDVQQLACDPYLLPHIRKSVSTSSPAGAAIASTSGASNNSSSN

Molecular target: TLK2 (Homo sapiens, UniProt Q86UE8)

SMILES	fold decrease in TLK2 inhibition (relative to 27)	fold less potent on TLK2 (relative to 73) [fold]
O=C1Nc2ccc(C(=O)c3ccc(F)cc3)cc2/C1=C/c1ccc[nH]1 [Compound 45, (3Z)-5-[(4-fluorophenyl)carbonyl]-3-(1H-pyrrol-2-ylmethylidene)-2,3-dihydro-1H-indol-2-one]	2–3 fold	–
O=C1Nc2ccc(NC(=O)c3ccccc3)cc2/C1=C/c1ncc[nH]1 [Compound 74, N-[(3Z)-3-(1H-imidazol-2-ylmethylidene)-2-oxo-2,3-dihydro-1H-indol-5-yl]benzamide]	–	3
